Experimental findings from US7169759B1, “Tetrapeptide inhibitors of β-secretase” (Elan Pharmaceuticals, Inc., priority 1999, dated 2007) are described below.

Sequences of proteins named here, by UniProt entry; tags and fusion partners are left off. Residues count along the entry.
UniProt P56817, 46-501 limits assumed: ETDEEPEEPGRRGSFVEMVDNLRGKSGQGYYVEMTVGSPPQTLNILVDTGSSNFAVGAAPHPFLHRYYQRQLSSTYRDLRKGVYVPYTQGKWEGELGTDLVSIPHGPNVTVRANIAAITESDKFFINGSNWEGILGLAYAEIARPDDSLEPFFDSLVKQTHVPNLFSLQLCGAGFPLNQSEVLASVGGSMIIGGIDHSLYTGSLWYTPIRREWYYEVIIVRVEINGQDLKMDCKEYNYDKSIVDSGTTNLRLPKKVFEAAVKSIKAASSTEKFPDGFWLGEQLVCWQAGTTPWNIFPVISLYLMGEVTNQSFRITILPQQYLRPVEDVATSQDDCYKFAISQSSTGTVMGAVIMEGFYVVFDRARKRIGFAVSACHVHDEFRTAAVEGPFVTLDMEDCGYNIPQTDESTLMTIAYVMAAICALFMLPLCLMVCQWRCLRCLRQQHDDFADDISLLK

In this assay the target is Human brain β-Secretase (Homo sapiens, UniProt P56817). Briefly: MBP-C125 enzyme inhibition assay (ELISA detection of β-secretase cleavage of MBP-C125 substrate). The note with it: read-out: IC50 Group, pH 4.5, 37° C., 90 minutes, highest concentration 200 μM. How it is done:
Enzyme Inhibition Assay Purpose/Rationale:
The MBP-C125 assay, determines relative inhibition of β-secretase cleavage of an MPB-C125 substrate by the compounds assayed. Human brain β-Secretase from the concentrated HiQ pool prepared Jul. 16, 1997 in 0.20% Triton is used in the assay. Inhibition data was obtained from an ELISA which uses an anti-MBP capture antibody (on precoated and blocked 96-well high binding plates) followed by incubation with diluted enzyme reaction supernatant, incubation with an anti-SW192 specific biotinylated reporter antibody and incubation with streptavidin/alkaline phosphatase. Detection was effected by a fluorescent substrate signal on cleavage by the phosphatase. The ELISA only detected cleavage following Leu 596 at the substrate's Swedish APP 751 mutation site.
Compounds were diluted in a 1:1 dilution series to a six-point concentration curve (two wells per concentration) which took up one 96-plate row per compound tested.
Each of the test compounds was weighed out into a vial and DMSO was added to make up a 10 mM solution. To obtain a final compound concentration of 200 μM at the high point of a 6-point dilution curve, 100 μL of the 10 mM solution was added to well C1 of a 96-well V-bottom plate. Fifty μL of DMSO was added to odd wells of row C across the plate and 1:1 serial dilutions were made. 10 μL of each dilution was added to each of two wells on row C of a corresponding V-bottom plate to which 190 μL of 52 mM NaOAc/7.9% DMSO, pH 4.5 were pre-added. The NaOAc diluted compound plate was spun down to pellet precipitant and 20 μL/well was transferred to a corresponding flat-bottom plate to which 30 μL of ice-cold enzyme-substrate mixture (2.5 μL MBP-C125 substrate, 0.03 μL enzyme and 24.5 ice cold 0.09% TX100 per 30 μl) was added. The compound concentration in the final enzyme reaction was thus 50 times less than the starting concentration. The final reaction mixture of 200 μM compound for the highest curve point was in 5% DMSO, 20 mM NaAc, 0.06% TX100, at pH 4.5. The enzyme reaction was started by warming the plates to 37° C. After 90 minutes at 37° C., 200 μL/well cold specimen diluent was added to stop the reaction and 20 μL/well was transferred to a corresponding α-MBP coated ELISA plate, containing 80 μL/well specimen diluent. This reaction was incubated overnight at 4° C. and the ELISA was developed the next day using a 2 hr. incubation with α-192SW followed by Streptavidin-AP conjugate and flourescent substrate. The signal was read on a fluorescent plate reader.
On the technique in general: In an ELISA, binding on a coated surface is turned into a signal by an enzyme label.
As to `CSCC[C@H](NC(=O)[C@@H](NC(=O)OC(C)(C)C)C(C)C)C(=O)NC(CC(C)C)C(O)CC(=O)NC(C(=O)NC(CCC(=O)O)C(=O)O)C(C)C` (some centres unmarked), the IC50 was less than 10 µM.
For `COC(=O)CCCNC(=O)C(NC(=O)CC(O)C(CC(C)C)NC(=O)[C@H](CCSC)NC(=O)[C@@H](NC(=O)OC(C)(C)C)C(C)C)C(C)C` (some centres unmarked), the IC50 was 10 to 99 µM.
Turning to `CSCC[C@H](NC(=O)[C@@H](NC(=O)OC(C)(C)C)C(C)C)C(=O)NC(CC(C)C)C(O)CC(=O)NC(C(=O)NCCC(=O)O)C(C)C` (some centres unmarked), the IC50 lay in the range of 10 to 99 µM.
The value for `CSCC[C@H](NC(=O)[C@@H](NC(=O)OC(C)(C)C)C(C)C)C(=O)NC(CC(C)C)C(O)CC(=O)NC(C(=O)Nc1ccc(F)cc1)C(C)C` (some centres unmarked) was 100 to 200 µM.
In the case of `CCCCCNC(=O)C(NC(=O)CC(O)C(CC(C)C)NC(=O)[C@H](CCSC)NC(=O)[C@@H](NC(=O)OC(C)(C)C)C(C)C)C(C)C` (some centres unmarked), the IC50 was greater than 200 µM.
The value for `CSCC[C@H](NC(=O)[C@@H](NC(=O)OC(C)(C)C)C(C)C)C(=O)NC(CC(C)C)C(O)CC(=O)NC(C(=O)O)C(C)C` (some centres unmarked) was 100 to 200 µM; that for `CSCCC(NC(=O)C(NC(=O)OC(C)(C)C)C(C)C)C(=O)NC(CC(C)C)C(O)CC(=O)NC(C(=O)NCc1ccc(C(=O)O)cc1)C(C)C` (centres unmarked) was less than 10 µM.
The value for `CSCCC(NC(=O)C(NC(=O)OC(C)(C)C)C(C)C)C(=O)NC(CC(C)C)C(O)CC(=O)NC(C(=O)NCc1ccncc1)C(C)C` (centres unmarked) was 100 to 200 µM; that for `CSCC[C@H](NC(=O)[C@@H](NC(=O)OC(C)(C)C)C(C)C)C(=O)NC(CC(C)C)C(O)CC(=O)NC(C(=O)NCCCC(=O)O)C(C)C` (some centres unmarked) was 10 to 99 µM; that for `CSCC[C@H](NC(=O)[C@@H](NC(=O)OC(C)(C)C)C(C)C)C(=O)NC(CC(C)C)C(O)CC(=O)NC(C(=O)NCCCCO)C(C)C` (some centres unmarked) was 100 to 200 µM.
Regarding `CSCC[C@H](NC(=O)[C@@H](NC(=O)OC(C)(C)C)C(C)C)C(=O)NC(CC(C)C)C(O)CC(=O)NC(C(=O)NCc1ncc(C(=O)O)s1)C(C)C` (some centres unmarked), the IC50 lay in the range of 10 to 99 µM.
Regarding `CSCC[C@H](NC(=O)[C@@H](NC(=O)OC(C)(C)C)C(C)C)C(=O)NC(CC(C)C)C(O)CC(=O)NC(C(=O)Nc1cccc(C(=O)O)c1)C(C)C` (some centres unmarked), the IC50 fell in the range of 10 to 99 µM.
Take `CSCCC(NC(=O)C(NC(=O)OC(C)(C)C)C(C)C)C(=O)NC(CC(C)C)C(O)CC(=O)NC(C(=O)NC1CCOC1=O)C(C)C` (centres unmarked): the IC50 lay within 10 to 99 µM.
The value for `CSCC[C@H](NC(=O)[C@@H](NC(=O)OC(C)(C)C)C(C)C)C(=O)NC(CC(C)C)C(O)CC(=O)NC(C(=O)NC1CCC(C(=O)O)CC1)C(C)C` (some centres unmarked) was less than 10 µM; that for `CSCC[C@H](NC(=O)[C@@H](NC(=O)OC(C)(C)C)C(C)C)C(=O)NC(CC(C)C)C(O)CC(=O)NC(C(=O)NC1CCC(CC(=O)O)CC1)C(C)C` (some centres unmarked) was less than 10 µM.
The value for `CCOC(=O)N1CCN(C(=O)C(NC(=O)CC(O)C(CC(C)C)NC(=O)C(CCSC)NC(=O)C(NC(=O)OC(C)(C)C)C(C)C)C(C)C)CC1` (centres unmarked) was 100 to 200 µM.
With `CSCC[C@H](NC(=O)[C@@H](NC(=O)OC(C)(C)C)C(C)C)C(=O)NC(CC(C)C)C(O)CC(=O)NC(C(=O)NCc1cccc(C(=O)O)c1)C(C)C` (some centres unmarked), the IC50 is less than 10 µM.
The value for `CSCC[C@H](NC(=O)[C@@H](NC(=O)OC(C)(C)C)C(C)C)C(=O)NC(CC(C)C)C(O)CC(=O)NC(C(=O)NC1CC(C(=O)O)CCC1C(=O)O)C(C)C` (some centres unmarked) was 10 to 99 µM; that for `CCNC(=O)C(NC(=O)CC(O)C(CC(C)C)NC(=O)[C@H](CCSC)NC(=O)[C@@H](NC(=O)OC(C)(C)C)C(C)C)C(C)C` (some centres unmarked) was 100 to 200 µM.
With `COC(=O)CCNC(=O)C(NC(=O)CC(O)C(CC(C)C)NC(=O)[C@H](CCSC)NC(=O)[C@@H](NC(=O)OC(C)(C)C)C(C)C)C(C)C` (some centres unmarked), the IC50 is 100 to 200 µM.
The value for `CSCC[C@H](NC(=O)[C@@H](NC(=O)OC(C)(C)C)C(C)C)C(=O)NC(CC(C)C)C(O)CC(=O)NC(C(=O)NC(CCC(N)=O)C(N)=O)C(C)C` (some centres unmarked) was greater than 200 µM; that for `CSCC[C@H](NC(=O)[C@@H](NC(=O)OC(C)(C)C)C(C)C)C(=O)NC(CC(C)C)C(O)CC(=O)NC(C(=O)NCCNC(C)=O)C(C)C` (some centres unmarked) was 100 to 200 µM; that for `CSCCC(NC(=O)C(NC(=O)OC(C)(C)C)C(C)C)C(=O)NC(CC(C)C)C(O)CC(=O)NC(C(=O)N1CCC(CC(=O)O)CC1)C(C)C` (centres unmarked) was 10 to 99 µM.
Regarding `CSCC[C@H](NC(=O)[C@@H](NC(=O)OC(C)(C)C)C(C)C)C(=O)NC(CC(C)C)C(O)CC(=O)NC(C(=O)NCc1ccccc1)C(C)C` (some centres unmarked), the IC50 is greater than 200 µM.
The value for `CSCC[C@H](NC(=O)[C@@H](NC(=O)OC(C)(C)C)C(C)C)C(=O)NC(CC(C)C)C(O)CC(=O)NC(C(=O)NCc1ccc(C(N)=O)cc1)C(C)C` (some centres unmarked) was 10 to 99 µM; that for `COC(=O)C(NC(=O)CC(O)C(CC(C)C)NC(=O)[C@H](CCSC)NC(=O)[C@@H](NC(=O)OC(C)(C)C)C(C)C)C(C)C` (some centres unmarked) was greater than 200 µM; that for `CSCC[C@H](NC(=O)[C@@H](NC(=O)OC(C)(C)C)C(C)C)C(=O)NC(CC(C)C)C(O)CC(=O)NC(C(=O)NC1CC(C(=O)O)CC(C(=O)O)C1)C(C)C` (some centres unmarked) was less than 10 µM.
For the molecule `CSCC[C@H](NC(=O)[C@@H](NC(=O)OC(C)(C)C)C(C)C)C(=O)NC(CC(C)C)C(O)CC(=O)NC(C(=O)NC1(C(=O)O)CC1)C(C)C` (some centres unmarked), the IC50 lay within 10 to 99 µM.
Regarding `CSCCC(NC(=O)C(NC(=O)OC(C)(C)C)C(C)C)C(=O)NC(CC(C)C)C(O)CC(=O)NC(C(=O)N(C)Cc1ccc(C(=O)O)cc1)C(C)C` (centres unmarked), the IC50 is 10 to 99 µM.
